Reference: patent US9617517B2, “Small chemical compound which promotes induction of differentiation of stem cells into insulin-producing cells and method for inducing differentiation of stem cells into insulin-producing cells using said small chemical compound” (NATIONAL UNIVERSITY CORPORATION KUMAMOTO UNIVERSITY, priority 2011, dated 2017)

System: mouse ES cells (Pdx1/GFP)
Assay: Differentiation of mouse ES cells into insulin positive cells on nano fiber plate, immunostaining and quantitative image analysis
Conditions: similar separate experiments

For pirlindole mesylate, the “induction of the differentiation of stem cells into insulin-producing cells” value was “induce the differentiation of stem cells into insulin-producing cells”.
